Screening data from PubChem BioAssay.
UUG fidelity: alters start codon recognition fidelity in yeast | S. cerevisiae UUG-firefly luciferase reporter, luminescence/redox ratio | activity score, % at 18.7 µM | 350,000 compounds, 0.13% hits | AID 602363;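 active = replicate mean at a twofold rise or more, about +100% in these data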;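 note: firefly luciferase made from a UUG start codon reports start codon fidelity; reporter light over untreated wells divided by growth signal over untreated wells; some hits fall short of that in this replicate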
MLL AF4-AF9 inh: inhibitors of human MLL-AF4/AF9 interaction | P42568 | 350,000 tested, 0.47% active | inhibition, % at 10 µM | AID 651704 | AlphaScreen, biotin-AF4 peptide binding to FLAG-AF9;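 active = every replicate reaching a set inhibition limit, whatever the replicate mean, cut at about 25% in these data; inconclusive = mean inhibition reaches that limit but some replicates miss it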
ERAP1 HTS inh: inhibitors of human ERAP1 aminopeptidase; AID 652197; recombinant ERAP1, Leu-AMC fluorescence, 60 min; 340,000 tested, 0.15% active; inhibition, % at 10.7 µM;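 active = mean replicate inhibition of at least 30%, or all replicates individually reaching that 30% level; inactive = mean below 30% and not every replicate reaching it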
S100A4 inh HTS: inhibitors of human S100A4 binding to myosin IIA peptide. S100A4/TAMRA-MyoIIA peptide fluorescence polarization. 360,000 tested, 0.14% active. P26447. inhibition, % at 10.7 µM;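 active = mean inhibition of at least 70% across replicates, with every replicate also reaching that level; inconclusive = mean inhibition reaches 70% but some replicates fall short; inactive = mean inhibition below 70%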
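Material: S100A4 monomer protein | Medium: HEPES pH 7.2 with CaCl2, KCl, NaCl, DTT, Triton | Reagent: Labelled myosin peptide probe, 5 nM | Doses: One dose per compound | Times: 5 min incubation before reading | Benchmarks: Neutral control DMSO, positive control TFP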
ARNT TACC3 PPI: disruptors of human ARNT/TACC3 interaction; AlphaScreen His-ARNT PAS-B/GST-TACC3 binding, luminescence; TACC3 fragment carries E629A point mutation; inhibition, % at 9.99 µM; 390,000 tested, 0.66% active;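 active = mean inhibition of replicates at least 50% and at least half of replicates each reaching 50%; inconclusive = half or more replicates reach 50% but mean below 50%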
E-selectin induc: E-selectin induction on HUVECs; P16581; HUVEC E-selectin immunofluorescence imaging; normalized: neutral wells 0, TNF-alpha wells 100; activation, % at 7.58 µM; 260,000 tested, 0.37% active; AID 686992;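 active = mean E-selectin-positive cell signal at least 10% of the positive control, reached in at least 60% of replicates, without over 20% cell loss; inconclusive = no rule given, readout overlaps actives, possibly toxicity-flagged; inactive = the rest, including those meeting only one limit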
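assay system = HUVEC, human umbilical vein endothelial cells | input = 3,000 HUVEC seeded per well | medium = EGM-2 growth medium on 0.1% gelatin-coated wells | dosing = one compound dose added by pin transfer | signal = immunofluorescence imaging | read-out basis = % PE-positive cells | control set = TNF-alpha, DMSO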
Hits are given with their value; n = inactive; u = inconclusive; x = no result given. The list is not random: actives were taken first. Their share in the collection is about 1.3%.

SMILES | UUG fidelity | MLL AF4-AF9 inh | ERAP1 HTS inh | S100A4 inh HTS | ARNT TACC3 PPI | E-selectin induc
CC(C)CC#Cc1cnc2c(c1)C(=O)N([C@H](C)CO)C[C@H](C)[C@H](CN(C)Cc1ccc3c(c1)OCO3)O2 | n | n | n | n | n | n
CC(C)CC(=O)NC(=S)NNC(=O)c1ccc(NC(=O)C2CCCCC2)cc1 | x | x | x | x | 68 | x
Cc1cccc(NS(=O)(=O)c2csc(C(N)=O)c2)c1C | n | n | n | n | n | 50
Cc1cccc(NS(=O)(=O)c2csc(C(N)=O)c2)c1 | n | n | n | n | n | n
CCC(=O)N1C[C@H](C)[C@@H](OC)CN(C)C(=O)c2ccc(NC(=O)C3CCOCC3)cc2OC[C@H]1C | x | x | x | x | n | n
CC1CN(C(=O)COC(=O)CSc2ccc(C(N)=O)cc2[N+](=O)[O-])CC(C)O1 (stereo not drawn) | x | n | n | n | n | 219
CC1CCC(NC(=O)COC(=O)CSc2ccc(C(N)=O)cc2[N+](=O)[O-])CC1 (stereo not drawn) | x | n | n | n | n | x
CC(=O)C1=C(C)Nc2ncnn2C1c1ccc(O)cc1 (stereo not drawn) | n | n | n | n | n | 44
O=C(C[C@H]1C[C@H]2c3cc(NC(=O)c4cccnc4)ccc3O[C@H]2[C@@H](CO)O1)NCc1cccnc1 | n | n | n | n | n | n
O=C(N[C@@H](Cc1ccccc1)c1nc2ccccc2[nH]1)c1ccc([N+](=O)[O-])cc1 | x | n | n | n | x | x
O=C(NC(Cc1ccccc1)c1nc2ccccc2[nH]1)c1cccc([N+](=O)[O-])c1 (stereo not drawn) | x | n | n | n | n | 83
O=C1C=C(NCCc2cc(Br)c(O)c(Br)c2)C(=O)c2ncccc21 | x | n | n | n | 64 | n
CC(=NNC(=S)Nc1cccc(Cl)c1)c1ccccn1 | x | n | n | n | 60 | n
C/C(=N\NC(=O)COc1ccccc1-c1ccccc1)c1cccnc1 | x | n | n | n | n | n
C/C(=N\NC(=O)c1ccccn1)c1ccc(Cl)cc1 | n | n | n | n | x | n
C/C(=N\NC(=O)COc1ccccc1-c1ccccc1)c1ccccn1 | n | n | n | n | 8.8 | n
C/C(=N\NC(=O)c1ccc(Cl)cc1)c1ccccn1 | n | n | n | n | 82 | n
COc1ccc(S(=O)(=O)Nc2ccc3c(c2)C(=O)N([C@@H](C)CO)C[C@@H](C)[C@@H](CN(C)C(=O)CCC(F)(F)F)OCCCC[C@H](C)O3)cc1 | n | n | n | n | n | n
O=C(c1cccnc1)N1CC(=O)N2[C@H](C1)[C@@H](c1ccc(C#CCC3CCCC3)cc1)[C@@H]2CO | x | n | n | n | x | n
CC(C)c1cccc(O)c(=O)c1 | n | n | n | n | n | x
CC(C)c1ccc2c(c1)C1(NN=C(c3ccccc3)S1)C(=O)N2 (stereo not drawn) | n | x | x | x | 50 | x
CC(C)C[C@@H](CN)NC(=O)c1nc[nH]c1C(=O)N[C@@H](Cc1ccccc1)C(=O)CNC[C@H](C)NC(=O)c1nc[nH]c1C(=O)N[C@@H](CC(=O)O)C(=O)O | n | n | x | n | n | n
CC(C)C[C@@H](CNCC(=O)[C@H](Cc1c[nH]c2ccccc12)NC(=O)c1[nH]cnc1C(=O)N[C@@H](C)CN)NC(=O)c1nc[nH]c1C(=O)N[C@@H](CC(=O)O)C(=O)O | 154 | n | n | n | n | n
CC(C)C[C@@H](CNCC(=O)[C@H](Cc1c[nH]c2ccccc12)NC(=O)c1[nH]cnc1C(=O)N[C@H](CN)CC(C)C)NC(=O)c1nc[nH]c1C(=O)N[C@@H](CC(=O)O)C(=O)O | 154 | n | n | n | n | n
CC(C)C[C@@H](CNCC(=O)[C@H](Cc1c[nH]c2ccccc12)NC(=O)c1[nH]cnc1C(=O)N[C@@H](C)CN)NC(=O)c1nc[nH]c1C(=O)N[C@@H](C)C(=O)O | 141 | n | n | n | n | n
SMILES | UUG fidelity | MLL AF4-AF9 inh | ERAP1 HTS inh | S100A4 inh HTS | ARNT TACC3 PPI | E-selectin induc
C[C@@H]1CN([C@@H](C)CO)C(=O)Cc2cc(NC(=O)CCCCCC(=O)Nc3ccccc3N)ccc2O[C@H]1CN(C)CC1CC1 | x | n | n | n | x | n
C/C(O)=c1/c(=O)nc2cccc3c2=c1c1ccccc1c3=O | n | n | n | n | 46 | x
COc1cccc(NC(=O)CCC(=O)Nc2cc(OC)c(NC(=O)c3cccs3)cc2OC)c1 | n | n | n | n | 50 | n
CO[C@H]1CN(C)C(=O)c2ccc(NC(=O)C3CC3)cc2OC[C@@H](C)N(Cc2ccccc2)C[C@@H]1C | n | n | n | n | n | n
COc1ccc(CNC(=O)N(C)C[C@H]2OCc3ccccc3-c3c(n(C)c4ccccc34)C(=O)N([C@@H](C)CO)C[C@@H]2C)cc1 | x | n | n | n | n | x
Nc1c(C(=O)OCC(=O)Nc2cccc([N+](=O)[O-])c2)[nH]c(=O)[nH]c1=O | n | x | n | n | 16 | x
O=C(COC(=O)c1ccccc1C(=O)c1ccccc1)Nc1cccc([N+](=O)[O-])c1 | n | n | n | n | n | n
CNC[C@H]1Oc2ccc(NC(=O)CCCN(C)C)cc2C(=O)N([C@H](C)CO)C[C@@H]1C | n | n | n | u | n | n
C[C@@H]1CN([C@H](C)CO)C(=O)Cc2cc(NS(=O)(=O)c3ccc(F)cc3)ccc2O[C@@H]1CN(C)C(=O)NC1CCCCC1 | n | n | n | n | n | n
COc1ccc(S(=O)(=O)Nc2ccc3c(c2)CC(=O)N([C@@H](C)CO)C[C@H](C)[C@@H](CN(C)C(=O)NC2CCCCC2)O3)cc1 | n | n | n | n | n | 79
COc1ccc(S(=O)(=O)Nc2ccc3c(c2)CC(=O)N([C@H](C)CO)C[C@@H](C)[C@@H](CN(C)C(=O)NC2CCCCC2)O3)cc1 | n | n | n | n | n | 55
COc1ccc(S(=O)(=O)Nc2ccc3c(c2)CC(=O)N([C@H](C)CO)C[C@H](C)[C@@H](CN(C)CC2CC2)O3)cc1 | n | n | n | 118 | n | n
CO[C@@H]1CN(C)C(=O)c2cc(NC(=O)C3CC3)ccc2OC[C@H](C)N(C(C)=O)C[C@@H]1C | n | n | n | n | n | n
CN1CCN(c2nc(-c3ccccn3)nc3ccccc23)CC1 | n | x | x | x | 67 | x
O=C(O)C[C@H]1C[C@@H]2c3cc(NC(=O)C4CCC4)ccc3O[C@@H]2[C@H](CO)O1 | n | n | n | n | n | n
CN1CCCC1CCNc1ccc2sc3ccccc3c(=O)c2c1 (stereo not drawn) | n | 26 | x | n | n | n
C/C=C/c1ccc2c(c1)O[C@H](CN(C)Cc1ccc(F)cc1)[C@@H](C)CN([C@@H](C)CO)S2(=O)=O | n | n | n | n | n | n
CN1C(=O)c2cc(NC(=O)c3cnccn3)ccc2OC[C@H]2O[C@@H](CC(=O)NC3CCC3)CC[C@@H]21 | n | n | n | n | n | n
